# Results published in article PMC8976035, “Pharmacodynamic, pharmacokinetic, and phase 1a study of bisthianostat, a novel histone deacetylase inhibitor, for the treatment of relapsed or refractory multiple myeloma” (Acta Pharmacologica Sinica, 2021).
# Where two headings read alike, the source gives them in different places.
# Legend:
# [1] = system: RPMI-8226 xenograft; conditions: mouse, in vivo
# [2] = system: MM.1S xenograft; conditions: mouse, in vivo
# [3] = both, ICR, mouse, in vivo, po, 200 mg/kg
# [4] = mouse, in vivo
# [5] = human, in vivo
# [6] = human, in vivo; remark: listed apart in the source
# [7] = in vivo; conditions: ICR, mouse; for half-life: t1/2
# [8] = in vivo; conditions: beagle, dog
# [9] = clinical; conditions: human, in vivo; for AUC(0-inf): AUC0–∞
smiles,measurement,setting,value
O=C(CCCCNC(=O)c1nc(-c2nccs2)sc1C1CC1)NO [BIS],body weight versus control,[1],no significant weight loss
same,body weight versus control,[2],no significant weight loss
same,Tmax,[3],0.38 (0.25–0.50) h
same,tissue distribution,[4],favorably distributed in blood compared with other tissues such as lung and liver
same,Ctrough,[5],< 2.00 ng/mL
same,time to achieve the steady state,[5],≤ 7 days
same,time of reaching Cmax (tmax),[5]; po,30 to 135 min
same,"any grade hematological treatment-related AEs, patients",[6],50%
same,"any grade nonhematological treatment-emergent AEs, patients",[6],37.5%
same,clinical cardiac toxicity,[6],no clinical cardiac toxicity has been observed
same,discontinuation of treatment due to AEs,[6],No patient discontinued the treatment
same,dose-limiting toxicities (DLT),[6],no DLT has been observed
same,"grade 3/4 hematological AEs, patients",[6],25%
same,grade 3/4 nonhematological AEs,[6],no grade 3/4 nonhematological AEs were reported
same,AUC(0-inf),"[7]; both, iv, 10 mg/kg",7340 ng·h/mL
same,MRT inf,"[7]; both, iv, 10 mg/kg",0.23 h
same,Vd,"[7]; both, iv, 10 mg/kg",0.31 L/kg
same,clearance,"[7]; both, iv, 10 mg/kg",22.8 mL/min/kg
same,half-life,"[7]; both, iv, 10 mg/kg",16.2 min
same,bioavailability,"[7]; both, po",16.9 to 35.5%
same,AUC(0-inf),"[7]; both, po, 50 mg/kg",13400 ng·h/mL
same,Cmax,"[7]; both, po, 50 mg/kg",8150 ng/mL
same,MRT inf,"[7]; both, po, 50 mg/kg",1.61 h
same,bioavailability,"[7]; both, po, 50 mg/kg",35.5%
same,half-life,"[7]; both, po, 50 mg/kg",61.8 min
same,Tmax,"[7]; both, po, 50 mg/kg",15 min
same,AUC(0-inf),"[7]; both, po, 100 mg/kg",20400 ng·h/mL
same,Cmax,"[7]; both, po, 100 mg/kg",8660 ng/mL
same,MRT inf,"[7]; both, po, 100 mg/kg",2.71 h
same,bioavailability,"[7]; both, po, 100 mg/kg",27.6%
same,half-life,"[7]; both, po, 100 mg/kg",57 min
same,Tmax,"[7]; both, po, 100 mg/kg",30 min
same,AUC(0-inf),"[7]; both, po, 200 mg/kg",25100 ng·h/mL
same,Cmax,"[7]; both, po, 200 mg/kg",9800 ng/mL
same,MRT inf,"[7]; both, po, 200 mg/kg",2.68 h
same,bioavailability,"[7]; both, po, 200 mg/kg",16.9%
same,AUC(0-inf),"[7]; female, iv, 10 mg/kg",7900 ng·h/mL
same,MRT inf,"[7]; female, iv, 10 mg/kg",0.24 h
same,Vd,"[7]; female, iv, 10 mg/kg",0.3 L/kg
same,clearance,"[7]; female, iv, 10 mg/kg",21.2 mL/min/kg
same,half-life,"[7]; female, iv, 10 mg/kg",17.4 min
same,AUC(0-inf),"[7]; female, po, 50 mg/kg",14100 ng·h/mL
same,Cmax,"[7]; female, po, 50 mg/kg",7970 ng/mL
same,MRT inf,"[7]; female, po, 50 mg/kg",1.86 h
same,half-life,"[7]; female, po, 50 mg/kg",66 min
same,Tmax,"[7]; female, po, 50 mg/kg",15 min
same,AUC(0-inf),"[7]; female, po, 100 mg/kg",26000 ng·h/mL
same,Cmax,"[7]; female, po, 100 mg/kg",8650 ng/mL
same,MRT inf,"[7]; female, po, 100 mg/kg",3.45 h
same,half-life,"[7]; female, po, 100 mg/kg",67.8 min
same,Tmax,"[7]; female, po, 100 mg/kg",30 min
same,AUC(0-inf),"[7]; female, po, 200 mg/kg",26500 ng·h/mL
same,Cmax,"[7]; female, po, 200 mg/kg",10800 ng/mL
same,MRT inf,"[7]; female, po, 200 mg/kg",2.85 h
same,half-life,"[7]; female, po, 200 mg/kg",87.6 min
same,Tmax,"[7]; female, po, 200 mg/kg",15 min
same,AUC(0-inf),"[7]; male, iv, 10 mg/kg",6810 ng·h/mL
same,MRT inf,"[7]; male, iv, 10 mg/kg",0.22 h
same,Vd,"[7]; male, iv, 10 mg/kg",0.33 L/kg
same,clearance,"[7]; male, iv, 10 mg/kg",24.5 mL/min/kg
same,half-life,"[7]; male, iv, 10 mg/kg",15.6 min
same,AUC(0-inf),"[7]; male, po, 50 mg/kg",12800 ng·h/mL
same,Cmax,"[7]; male, po, 50 mg/kg",8340 ng/mL
same,MRT inf,"[7]; male, po, 50 mg/kg",1.35 h
same,half-life,"[7]; male, po, 50 mg/kg",57.6 min
same,Tmax,"[7]; male, po, 50 mg/kg",15 min
same,AUC(0-inf),"[7]; male, po, 100 mg/kg",16000 ng·h/mL
same,Cmax,"[7]; male, po, 100 mg/kg",8680 ng/mL
same,MRT inf,"[7]; male, po, 100 mg/kg",1.96 h
same,half-life,"[7]; male, po, 100 mg/kg",46.2 min
same,Tmax,"[7]; male, po, 100 mg/kg",30 min
same,AUC(0-inf),"[7]; male, po, 200 mg/kg",23800 ng·h/mL
same,Cmax,"[7]; male, po, 200 mg/kg",8880 ng/mL
same,MRT inf,"[7]; male, po, 200 mg/kg",2.52 h
same,half-life,"[7]; male, po, 200 mg/kg",109 min
same,Tmax,"[7]; male, po, 200 mg/kg",30 min
same,NOAEL,[8],< 15 mg/kg/day
same,AUC,[9],> 2000 ng·h/mL
same,Vd/F,[9],230 to 538 L
same,AUC(0-inf),"[9]; po, 100 mg",2070 ng·h/mL
same,Cmax,"[9]; po, 100 mg",599 ng/mL
same,Vd/F,"[9]; po, 100 mg",314 L
same,half-life,"[9]; po, 100 mg, t1/2",257 min
same,AUC(0-inf),"[9]; po, 200 mg",3760 ng·h/mL
same,Cmax,"[9]; po, 200 mg",1110 ng/mL
same,Vd/F,"[9]; po, 200 mg",343 L
same,half-life,"[9]; po, 200 mg, t1/2",263 min
same,Tmax,"[9]; po, 200 mg, tmax",30 min
same,AUC(0-inf),"[9]; po, 400 mg",5190 ng·h/mL
same,Cmax,"[9]; po, 400 mg",1300 ng/mL
same,Vd/F,"[9]; po, 400 mg",445 L
same,half-life,"[9]; po, 400 mg, t1/2",246 min
same,half-life,"[9]; po, half-life",~240 min
